# Data reported in PubChem BioAssay AID624291 (National Center for Advancing Translational Sciences (NCATS), 2012).
# Only a part is listed here, and it is no random draw. Inconclusive results are not listed. Activity calls are given as the source filed them. Calls follow the shape of the dose curve; as a rule, active = well fitted activation curve with a large enough effect; inconclusive = small, poorly fitted or top-dose-only effect; inactive = no such curve, though single readings can be large or run the other way.
# Assay: qHTS for Activators of Integrin-Mediated Alleviation for Muscular Dystrophy;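 also: 100% = response of the positive control SU9516; nearly all actives have a fitted effect of over 60% in size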
# Conditions: alpha7betagal myoblasts, beta-gal FDG fluorescence, 48 h; at 38.3 µM (top of the series)
row,Compound,activation
1,CP(=O)(Nc1ccccn1)Oc1ccc(Cl)cc1 (stereo unspecified),inactive: -9.5%
2,CCOP(C)(=S)SCC(=O)NC(C)C(=O)O (stereo unspecified),inactive: -4.37%
3,O=[N+]([O-])c1cc([N+](=O)[O-])c(O)c([N+](=O)[O-])c1.c1ccc(Oc2ccncc2)cc1,inactive: 20.8%
4,CCOC(=O)c1ccc(NP(C)(=O)Oc2ccc(OC)cc2)cc1 (stereo unspecified),inactive: -14.7%
5,CP(=O)(NC(=O)Nc1ccccc1)Oc1ccccc1 (stereo unspecified),inactive: -2.4%
6,CCc1ccc(OP(C)(=O)N2CCN(c3ccc([N+](=O)[O-])cc3)CC2)cc1 (stereo unspecified),inactive: 5.54%
7,CP(=O)(Oc1ccccc1)OC(c1ccccc1)C(F)(F)F (stereo unspecified),inactive: -16%
8,CP(=O)(Nc1ccc(SC(F)(F)F)cc1)Oc1ccc(Cl)cc1 (stereo unspecified),inactive: 7.71%
9,Cc1cccc(C)c1OP(C)(=O)Nc1ccc(SC(F)(F)F)cc1 (stereo unspecified),inactive: 23.3%
10,COc1ccccc1OP(C)(=O)Nc1ccccc1 (stereo unspecified),inactive: -17%
11,CP(=O)(Nc1ccccc1Br)Oc1ccccc1 (stereo unspecified),inactive: -14.9%
12,CP(=S)(Nn1cnnc1)Oc1ccccc1 (stereo unspecified),inactive: 12.2%
13,CP(=O)(OC12CC3CC(CC(C3)C1)C2)OC12CC3CC(CC(C3)C1)C2,inactive: 0.13%
14,CCOC(=O)c1ccc(NP(C)(=O)Oc2ccc(Cl)cc2)cc1 (stereo unspecified),inactive: -10.4%
15,Nc1ccc2c(ccc3cccnc32)n1.O=[N+]([O-])c1cc([N+](=O)[O-])c(O)c([N+](=O)[O-])c1,inactive: 1.41%
16,CN(C)C(=O)c1c([N+](=O)[O-])cc([N+](=O)[O-])cc1[N+](=O)[O-],inactive: -75.2%
17,CP(=O)(Nc1ccc(Cl)cc1)Oc1ccc(F)cc1 (stereo unspecified),inactive: 10.1%
18,COc1ccccc1OP(C)(=O)Nc1ccccc1Br (stereo unspecified),inactive: 2.79%
19,CC(C)(C)c1ccc(OP(C)(=O)O)cc1,inactive: 8.91%

row,Compound,activation
1,CCc1ccc(OP(C)(=O)Nc2cccnc2)cc1 (stereo unspecified),inactive: 1.72%
2,CP(=O)(Oc1ccccc1)N1CCOC1=O (stereo unspecified),inactive: -6.05%
3,O=C(OCCCN1CCCC1)C(O)(c1ccccc1)C1CCCCC1 (stereo unspecified),inactive: -32.1%
4,COc1ccccc1OP(C)(=O)Nc1c(C)n(C)n(-c2ccccc2)c1=O (stereo unspecified),inactive: -0.898%
5,COc1ccc(OP(C)(=O)Nc2ccc(Br)cc2)cc1 (stereo unspecified),inactive: 2.76%
6,CCN(CC)CC(O)COC(=O)C(O)(c1ccccc1)C1CCCCC1 (stereo unspecified),inactive: 18.7%
7,CCc1ccc(OP(C)(=O)O)cc1,inactive: 11.7%
8,COc1ccccc1OP(C)(=O)Nc1ccc(C)cc1C (stereo unspecified),inactive: 2.73%
9,CP(=O)(Nc1ccccn1)Oc1ccccc1 (stereo unspecified),inactive: 6.51%
10,Cc1c(NP(C)(=O)Oc2ccc(C(C)C)cc2)c(=O)n(-c2ccccc2)n1C (stereo unspecified),inactive: -3.67%
11,O=[N+]([O-])c1cc([N+](=O)[O-])c(Nc2ccccn2)c([N+](=O)[O-])c1,inactive: -63.7%
12,CN(C)CCOC(=O)C(O)(c1ccccc1)C1CCCC1 (stereo unspecified),inactive: -4.74%
13,COc1ccc(OP(C)(=O)Nc2ccccn2)cc1 (stereo unspecified),inactive: 4.83%
14,COc1ccccc1OP(C)(=O)Nc1ccc(Br)cc1 (stereo unspecified),inactive: 14.3%
15,CP(=O)(Nc1ccc(Cl)cc1Cl)Oc1ccccc1 (stereo unspecified),inactive: 2.36%
16,CCCCCCCCCCCCCCCC1C[N+](C)(C)CCOP(C)(=O)O1 (stereo unspecified),inactive: 18.3%
17,CP(=O)(OCCOc1ccccc1)OCCOc1ccccc1,inactive: -12.6%
18,COc1ccc(OP(C)(=O)Nc2ccccc2Br)cc1 (stereo unspecified),inactive: -3.52%
19,COc1ccccc1OP(C)(=O)Nc1ccc(C)c(C)c1 (stereo unspecified),inactive: 14.4%

row,Compound,activation
1,Cc1cc(C)cc(OP(C)(=O)Nc2cccc(C(F)(F)F)c2)c1 (stereo unspecified),inactive: 16.4%
2,CCCCCOc1ccc(NP(C)(=O)Oc2ccc(Cl)cc2Cl)cc1 (stereo unspecified),inactive: -25.4%
3,CP(=O)(Nc1ccccc1)Oc1ccc(F)cc1 (stereo unspecified),inactive: 13.7%
4,CCN(CC)CCCOC(=O)C(O)(c1ccccc1)C1CCCCC1 (stereo unspecified),inactive: -20.8%
5,Cc1c([N+](=O)[O-])cc([N+](=O)[O-])c(Br)c1[N+](=O)[O-],inactive: 5.68%
6,COc1ccc(OP(C)(=O)Nc2ccc(SC(F)(F)F)cc2)cc1 (stereo unspecified),inactive: -5.19%
7,CCOC(=O)c1ccc(NP(C)(=O)Oc2ccc(F)cc2)cc1 (stereo unspecified),inactive: 10.5%
8,O=C(OCCN1CCN(CCOCc2ccccc2)CC1)C(O)(c1ccccc1)c1ccccc1,inactive: -10.8%
9,CC(C)c1ccc(OP(C)(=O)Nc2ccc(SC(F)(F)F)cc2)cc1 (stereo unspecified),inactive: -2.91%
10,Cc1ccccc1NP(C)(=O)Nc1ccccc1C,inactive: 8.24%
11,CP(=O)(Nc1ccc2c(c1)OCCO2)Oc1ccccc1 (stereo unspecified),inactive: 7.66%
12,CCOP(C)(=S)SCC(=O)NC(C)(CC)C(=O)O (stereo unspecified),inactive: 7.8%
13,CP(=O)(Nc1ccc(SC(F)(F)F)cc1)Oc1ccc(F)cc1 (stereo unspecified),inactive: -16%
14,Cc1c(C(c2ccc3c(c2)OCO3)c2c(C)n(C)n(-c3ccccc3)c2=O)c(=O)n(-c2ccccc2)n1C.O=[N+]([O-])c1cc([N+](=O)[O-])c(O)c([N+](=O)[O-])c1,inactive: 2.56%
15,Cc1cc(-c2cccc3ccccc23)c(C)cn1.O=[N+]([O-])c1cc([N+](=O)[O-])c(O)c([N+](=O)[O-])c1,inactive: -15.2%
16,COc1ccc(NP(C)(=O)Oc2ccccc2OC)cc1 (stereo unspecified),inactive: 12.1%
17,CN(C)CCOC(=O)C(O)(c1ccccc1)C1CCCCC1 (stereo unspecified),inactive: 0.251%
18,COc1ccc(OP(C)(=O)Nc2cccc(Br)c2)cc1 (stereo unspecified),inactive: -11.2%
